The values below come from US20170029366A1, “INHIBITORS OF HISTONE LYSINE SPECIFIC DEMETHYLASE (LSD1) AND HISTONE DEACETYLASES (HDACS)” (THE JOHNS HOPKINS UNIVERSITY, priority 2014, published 2017).

The chains behind the UniProt entries cited, without tags or fusion partners.
UniProt P21397, whole entry: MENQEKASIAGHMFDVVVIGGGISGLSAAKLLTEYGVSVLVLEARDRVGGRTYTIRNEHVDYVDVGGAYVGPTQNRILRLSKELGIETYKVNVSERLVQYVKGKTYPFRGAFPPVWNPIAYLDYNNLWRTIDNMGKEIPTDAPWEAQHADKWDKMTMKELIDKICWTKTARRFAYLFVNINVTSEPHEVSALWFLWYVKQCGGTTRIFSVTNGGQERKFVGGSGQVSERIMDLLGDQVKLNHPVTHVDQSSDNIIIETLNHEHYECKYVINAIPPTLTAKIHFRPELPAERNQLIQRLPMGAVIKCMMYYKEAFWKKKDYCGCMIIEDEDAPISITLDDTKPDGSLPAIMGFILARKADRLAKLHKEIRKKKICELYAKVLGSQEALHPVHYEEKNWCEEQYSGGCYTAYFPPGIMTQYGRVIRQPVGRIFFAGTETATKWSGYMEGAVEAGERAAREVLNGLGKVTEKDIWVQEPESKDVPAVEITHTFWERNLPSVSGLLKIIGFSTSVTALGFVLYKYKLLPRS
UniProt P27338, whole entry: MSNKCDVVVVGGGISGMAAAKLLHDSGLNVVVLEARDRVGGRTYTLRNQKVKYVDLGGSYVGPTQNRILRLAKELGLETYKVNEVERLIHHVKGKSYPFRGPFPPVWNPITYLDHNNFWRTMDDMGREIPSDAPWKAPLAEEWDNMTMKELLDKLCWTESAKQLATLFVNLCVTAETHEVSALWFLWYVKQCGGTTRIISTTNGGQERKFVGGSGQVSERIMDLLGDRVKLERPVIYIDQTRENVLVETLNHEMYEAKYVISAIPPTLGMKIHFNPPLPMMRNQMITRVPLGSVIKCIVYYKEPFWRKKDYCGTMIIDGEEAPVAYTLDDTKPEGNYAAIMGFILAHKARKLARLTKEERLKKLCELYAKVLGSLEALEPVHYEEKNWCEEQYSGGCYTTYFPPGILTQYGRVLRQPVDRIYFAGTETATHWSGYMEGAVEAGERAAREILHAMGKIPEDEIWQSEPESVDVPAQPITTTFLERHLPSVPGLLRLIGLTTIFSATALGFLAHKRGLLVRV

One assay relates to H3K4Me2 in LNCaP cells. The assay is described as follows: Western blot of histone H3 marks in LNCaP cells. The format is cell-based. Particulars: 48 h. (In western blotting, separated proteins are transferred to a membrane and probed.)
For assay [1], the target named is T1, GST-LSD1 (Homo sapiens, UniProt O60341).
The target of a further assay is T2, MAO-A (Homo sapiens, UniProt P21397).
T2 construct: purchased Sigma M 7316
The assay is described as follows: MAO-A activity and inhibition assay (peroxidase-coupled, tyramine). The format is biochemical. On the procedure:
(§1) MAO-A was purchased from Sigma (product number: M 7316). MAO-B was purchased from Sigma (product number: M 7441). MAO-A/B activity was measured spectrophotometrically using a peroxidase-coupled assay as previously described. Forneris, F., et al. (2005). 100 μL reactions were initiated by the addition of 2 μL of MAO-A/B (to obtain 100-200 nM final concentration for MAO-A and 0.837 M final concentration for MAO-B) to reaction mixtures consisting of 50 mM HEPES buffer (pH 7.5), 0.1 mM 4-aminoantipyrine, 1 mM 3,5-dichloro-2-hydroxybenzenesulfonic acid, 0.04 mg/mL horseradish peroxidase (Worthington Biochemical Corporation), and appropriate concentration of buffered substrate (tyramine). Absorbance changes were measured at 515 nm using a Beckman Instruments DU series 600 spectrophotometer equipped with a thermostatted cell holder (T=25° C.), and product formation was calculated using the extinction coefficient of 26,000 M^−1.
(§2) […]. Reactions were run at similar conditions as previously stated with 125 µM tyramine substrate for MAO-A and with 125-1,000 M tyramine substrate for MAO-B. Progress curves were then fit accordingly to eqs 1-3 as previously stated. Each experiment was repeated at least two independent times and repeat measured values were typically within 20% of each other.

Another assay concerns the target T3, MAO-B (Homo sapiens, UniProt P27338).
T3 construct: purchased Sigma M 7441
The assay is described as follows: MAO-B activity and inhibition assay (peroxidase-coupled, tyramine). The format is biochemical. On the procedure:
as §1, §2

A further assay has as its system LNCaP cells. In words: [3H] thymidine incorporation assay in LNCaP cells. The format is cell-based. The following applies: 48 h, 80 μM.
The target of assay [2] is T1, GST-LSD1. Particulars: as reported previously (Blair 2011); cited from earlier work.
Assay [3] deals with T1, GST-LSD1. In words: MassSQUIRM LSD1 inhibition assay. The format is biochemical. On the set-up: made in house; host or cells: E. coli. The following applies: 50 μM inhibitor, 215 nM GST-LSD1, 30 min, 25° C.

`Cl.Cl.NNCCc1ccc(NC(=O)CCCc2ccccc2)cc1` [Compound 12d, N-[4-(2-Hydrazinylethyl)phenyl]-4-phenylbutanamide dihydrochloride]: the H3K4Me2 band density result in the assay on H3K4Me2 in LNCaP cells (3 μM and 10 μM, 3 biological replicates) is recorded as “Statistically significant increases”. Also, in the assay with H3K4Me2 in LNCaP cells (0.4-10 μM), the “changes in H3K4Me1, H3K4Me3, unmethylated H3K4, H3K9Me2, H3K9Ac, H3K36Me3” value was “no significant reproducible changes” and the “effect on LSD1 protein levels” value is “no discernible effect”.
Regarding `NNCCc1ccc(NC(=O)CCCc2c[nH]c3ccccc23)cc1.O=S(=O)(O)O` [Compound 15b, N-[4-(2-Hydrazinylethyl)phenyl]-4-(1H-indol-3-yl)butanamide sulfate], at GST-LSD1 [1] (GST-LSD1, peroxidase-coupled assay), the “k(inact)” value was 0.17 ± 0.019 min⁻¹.
Consider `NNCCc1ccccc1` [phenelzine], for which the “k(inact)” value at MAO-A (MAO-A) worked out at 0.24 ± 0.057 min⁻¹; on MAO-B (MAO-B), 0.20 ± 0.040 min⁻¹. Also, the “k(inact)/Ki(inact)” value on MAO-A (MAO-A) was 4830 ± 3000 M⁻¹ s⁻¹; on MAO-B (MAO-B), 850 ± 417 M⁻¹ s⁻¹; at GST-LSD1 [1] (GST-LSD1 inactivation efficiency) it was 1050 ± 300 M⁻¹ s⁻¹. The “selective for inhibiting LSD1 versus MAO A” value at MAO-A (based on k(inact)/Ki(inact)) was “preferentially inhibits MAO A”. For the same compound, the “selective for inhibiting LSD1 versus MAO B” value on MAO-B (based on k(inact)/Ki(inact)) is on record as “equipotent in blocking MAO B compared with LSD1”. Further, the “reduction in 3H-thymidine incorporation” value in the assay on LNCaP cells is below 50%. Further, the “weaker LSD1 inhibitor than bizine” value at GST-LSD1 [1] (phenelzine relative to bizine) is “approximately 100 fold”. The “concentration needed to extinguish LSD1 activity under MassSQUIRM conditions” value at GST-LSD1 [2] is “greater than 10 mM”. For the same compound, at GST-LSD1 [3], the “LSD1 inhibition in MassSQUIRM assay (in words)” value was “negligible impact on LSD1 inhibition”.
